Patent US20150323548A1, “METHODS OF MONITORING THE MODULATION OF THE KINASE ACTIVITY OF FIBROBLAST GROWTH FACTOR RECEPTOR AND USES OF SAID METHODS” (Novartis AG, priority 2008, published 2015)

Settings: melanoma patients, oral once daily continuous dose schedule

## CN1CCN(c2ccc3nc(-c4c(N)c5c(F)cccc5[nH]c4=O)[nH]c3c2)CC1 [TKI258]
  MTD: 400 mg/day
